In patent US5516525A, “Vitamin D derivative feed compositions and methods of use” (University of Georgia Research Foundation, Inc., priority 1994, dated 1996):

tested on: phytate phosphorus utilization; test: calcium, phosphorus and phytate phosphorus retention; conditions: in words, Example 1

SMILES	utilization of phytate phosphorus
C=C1CC[C@H](O)C/C1=C/C=C1\CCC[C@]2(C)[C@@H]([C@H](C)CCC(O)C(C)(C)O)CC[C@@H]12 (stereo partly drawn) [24,25-(OH)2 D3, 24,25-dihydroxycholecalciferol, reference compound]	did not appear to increase phytate phosphorus utilization in the absence of phytase
O.O=P([O-])([O-])O.[Na+].[Na+] [P, Na2 HPO4 H2 O]	decreases phytate phosphorus utilization
C=C1/C(=C\C=C2/CCC[C@]3(C)[C@@H]([C@H](C)CCCC(C)C)CC[C@@H]23)C[C@@H](O)C[C@@H]1O [1-OHD3, 1-hydroxycholecalciferol]	did not appear to increase phytate phosphorus utilization in the absence of phytase
